## Membrane permeability of cyclic peptides

Collected by the curators of CycPeptMPDB (Li et al. 2023) from Townsend et al. 2020, doi:10.26434/chemrxiv.13335941.v1.

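Conditions beyond the assay type are not listed; see the original paper. The list need not hold all peptides of the study. Entries at the database's floor value (log10 P of -10) are not listed.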

PAMPA is the parallel artificial membrane permeability assay, which has no cells and reads passive diffusion. Permeability is given as log10 of P in cm/s; higher (less negative) is more permeable.

| structure (SMILES) | PAMPA (log10 cm/s) |
|---|---|
| CCCN1CC(=O)N[C@H](CC(C)C)C(=O)N(Cc2ccccc2)CC(=O)N2CCC[C@H]2C(=O)N[C@H](CC(C)C)C(=O)N[C@@H](Cc2ccccc2)C(=O)N2CCC[C@H]2C1=O | -6.29 |
| CC(C)C[C@@H]1NC(=O)[C@H](CC(C)C)N(C)C(=O)[C@H](C)N(C)C(=O)[C@H](Cc2ccccc2)NC(=O)[C@@H](CC(C)C)NC(=O)[C@@H]2CCCN2C1=O | -5.73 |
| CC(C)C[C@@H]1NC(=O)[C@H]2CCCN2C(=O)[C@H](CC(C)C)NC(=O)[C@H](CC(C)C)N(C)C(=O)[C@H](C)NC(=O)[C@H](Cc2ccccc2)NC1=O | -6.46 |
| CC(C)C[C@@H]1C(=O)N2CCC[C@@H]2C(=O)N(C)[C@H](CC(C)C)C(=O)N[C@@H](Cc2ccccc2)C(=O)N2CCC[C@H]2C(=O)N(C)[C@H](C)C(=O)N(Cc2ccccc2)CC(=O)N1C | -5.56 |
| CCCN1CC(=O)N(C)[C@H](CC(C)C)C(=O)N[C@@H](CC(C)C)C(=O)N2CCC[C@@H]2C(=O)N(C)[C@@H](CC(C)C)C(=O)N[C@@H](Cc2ccccc2)C1=O | -5.05 |
| CC(C)C[C@@H]1C(=O)N[C@@H](Cc2ccccc2)CC(=O)N2CCC[C@@H]2C(=O)N[C@H](CC(C)C)C(=O)N[C@@H](Cc2ccccc2)C(=O)N2CCC[C@H]2C(=O)N[C@@H](C)C(=O)N1C | -6.64 |
| CCCN1CC(=O)N(C)[C@@H](CC(C)C)C(=O)N[C@@H](CC(C)C)C(=O)N2CCC[C@@H]2C(=O)N(Cc2ccccc2)CC(=O)N[C@@H](Cc2ccccc2)C(=O)N2CCC[C@@H]2C1=O | -5.41 |
| CC(C)C[C@@H]1NC(=O)[C@@H](C)NC(=O)[C@H]2CCCN2C(=O)[C@H](Cc2ccccc2)NC(=O)CN(Cc2ccccc2)C(=O)[C@@H]2CCCN2C(=O)CN(Cc2ccccc2)C1=O | -5.49 |
| CC(C)C[C@@H]1C(=O)N[C@@H](Cc2ccccc2)C(=O)N2CCC[C@H]2C(=O)N[C@@H](Cc2ccccc2)CC(=O)N[C@H](CC(C)C)C(=O)N[C@H](CC(C)C)C(=O)N2CCC[C@@H]2C(=O)N1C | -5.47 |
| CC(C)C[C@@H]1C(=O)N2CCC[C@@H]2C(=O)N(Cc2ccccc2)CC(=O)N[C@@H](Cc2ccccc2)C(=O)N(C)[C@@H](C)C(=O)N[C@H](CC(C)C)C(=O)N1C | -5.20 |
| CC(C)C[C@@H]1NC(=O)[C@H](CC(C)C)N(C)C(=O)[C@@H](C)NC(=O)[C@H](Cc2ccccc2)NC(=O)[C@@H](CC(C)C)N(C)C(=O)[C@H]2CCCN2C1=O | -4.88 |
| CC(C)C[C@@H]1C(=O)N[C@@H](Cc2ccccc2)C(=O)N2CCC[C@H]2C(=O)N(C)[C@H](C)C(=O)N(C)[C@@H](CC(C)C)C(=O)N(Cc2ccccc2)CC(=O)N2CCC[C@H]2C(=O)N1C | -5.63 |
| CC(C)C[C@H]1C(=O)N(Cc2ccccc2)CC(=O)N2CCC[C@H]2C(=O)N(C)[C@@H](CC(C)C)C(=O)N[C@@H](Cc2ccccc2)C(=O)N2CCC[C@@H]2C(=O)N(C)[C@@H](C)C(=O)N1C | -5.18 |
| CCCN1CC(=O)N(C)[C@@H](CC(C)C)C(=O)N[C@@H](Cc2ccccc2)CC(=O)N2CCC[C@H]2C(=O)N(C)[C@@H](CC(C)C)C(=O)N[C@@H](Cc2ccccc2)C(=O)N2CCC[C@@H]2C1=O | -5.12 |
| CCCN1CC(=O)N[C@H](CC(C)C)C(=O)N(C)[C@@H](CC(C)C)C(=O)N2CCC[C@@H]2C(=O)N(Cc2ccccc2)CC(=O)N[C@@H](Cc2ccccc2)C(=O)N2CCC[C@@H]2C1=O | -5.68 |
| CC(C)C[C@H]1C(=O)N(C)[C@@H](CC(C)C)C(=O)N2CCC[C@H]2C(=O)N(Cc2ccccc2)CC(=O)N[C@@H](Cc2ccccc2)C(=O)N2CCC[C@H]2C(=O)N(C)[C@@H](C)C(=O)N1C | -5.05 |

2 of these entries, quoted again:

| structure (SMILES) | PAMPA (log10 cm/s) |
|---|---|
| CCCN1CC(=O)N(C)[C@@H](CC(C)C)C(=O)N[C@@H](Cc2ccccc2)CC(=O)N2CCC[C@H]2C(=O)N(C)[C@@H](CC(C)C)C(=O)N[C@@H](Cc2ccccc2)C(=O)N2CCC[C@@H]2C1=O | -5.12 |
| CC(C)C[C@@H]1C(=O)N2CCC[C@@H]2C(=O)N(Cc2ccccc2)CC(=O)N[C@@H](Cc2ccccc2)C(=O)N(C)[C@@H](C)C(=O)N[C@H](CC(C)C)C(=O)N1C | -5.20 |